The values that follow come from PMC10578927, “An unconventional gatekeeper mutation sensitizes inositol hexakisphosphate kinases to an allosteric inhibitor” (eLife, 2023).

By UniProt entry, the sequences of proteins in these tests, tags left out. Where a name states a change or a piece, a line headed by the entry shows the natural chain unless it says otherwise.
UniProt Q92551, whole entry L210V: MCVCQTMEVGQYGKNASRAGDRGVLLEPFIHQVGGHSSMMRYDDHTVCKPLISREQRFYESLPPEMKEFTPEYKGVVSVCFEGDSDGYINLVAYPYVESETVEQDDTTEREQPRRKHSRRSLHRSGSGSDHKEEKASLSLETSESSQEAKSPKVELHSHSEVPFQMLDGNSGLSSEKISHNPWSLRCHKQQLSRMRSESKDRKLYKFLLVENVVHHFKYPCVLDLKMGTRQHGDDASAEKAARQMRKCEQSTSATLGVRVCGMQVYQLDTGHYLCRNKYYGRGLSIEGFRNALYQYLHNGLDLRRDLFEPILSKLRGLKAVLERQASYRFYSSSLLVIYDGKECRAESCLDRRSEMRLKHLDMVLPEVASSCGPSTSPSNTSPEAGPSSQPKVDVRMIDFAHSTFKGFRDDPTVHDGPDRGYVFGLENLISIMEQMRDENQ
UniProt Q92551, whole entry: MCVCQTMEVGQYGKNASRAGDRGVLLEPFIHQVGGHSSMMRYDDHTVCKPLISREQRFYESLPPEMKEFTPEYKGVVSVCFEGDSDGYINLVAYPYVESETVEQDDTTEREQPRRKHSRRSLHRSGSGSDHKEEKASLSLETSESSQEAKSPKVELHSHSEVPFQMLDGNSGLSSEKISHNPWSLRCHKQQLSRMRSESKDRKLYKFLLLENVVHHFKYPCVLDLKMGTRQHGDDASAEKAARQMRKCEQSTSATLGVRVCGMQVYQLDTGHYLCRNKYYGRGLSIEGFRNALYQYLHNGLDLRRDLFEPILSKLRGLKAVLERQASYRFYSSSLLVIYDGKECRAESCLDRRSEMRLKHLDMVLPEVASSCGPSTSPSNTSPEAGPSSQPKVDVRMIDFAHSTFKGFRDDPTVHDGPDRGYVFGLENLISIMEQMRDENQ

Structures are written as SMILES. pIC50: −log10 of the molar value.

Data set [1] concerns the target IP6K1^L210V (Homo sapiens, UniProt Q92551, L210V). As to the kind of experiment: High-throughput screen, reverse kinase reaction (5PP-InsP5 + ADP), Kinase-Glo luminescence. In kind it is biochemical. Conditions: for Z-score: primary screen, IP6K1^L210V; for pIC50: read-out: IC50 (IP6K1^L210V), Kinase-Glo, reverse reaction, dose-dependent reconfirmation. (In general: Kinase-Glo measures the ATP left after a reaction by luminescence.)

Data set [2] concerns the target IP6K1^wt (Homo sapiens, UniProt Q92551). The description is as above. The class given is biochemical. Conditions: read-out: IC50 (IP6K1^wt), dose-dependent reconfirmation.
In data set [3] the test system is HepG2. Briefly: Cytotoxicity, cell survival after 72 hr incubation. The note with it: HepG2, 10 µM. In kind it is cell-based.
Data set [4] relates to HEK293. As to the kind of experiment: Cytotoxicity, cell survival after 72 hr incubation. In kind it is cell-based. The note with it: HEK293, 10 µM.

For orientation: pIC50 means −log10 of the IC50, conventionally taken in molar units. As for `Cc1c(O)cc2oc(-c3ccc(O)c(O)c3)c(O)c(=O)c2c1O`, in data set [1], the Z-score is -24.6 and the pIC50 was 5.75. Also, the pIC50 in data set [2] is 4.32.
Take `O=c1c(O)c(-c2ccc(O)c(O)c2)oc2cc(O)ccc12`: the “Cell number (%)” value in data set [3] is 67.4 ± 6.4%; in data set [4] it was 72.7 ± 9.8%. Besides, in data set [1], the Z-score is recorded as -18.2. The pIC50 was 5.29 in data set [1] and 4.07 in data set [2].
Regarding `O=c1c(O)c(-c2ccc(O)c(O)c2)oc2cc(O)cc(O)c12` [compound 405356, quercetin, reference compound], the Z-score in data set [1] is listed as -17.5.
